# Test system: Hep3B cells
# Test: CCK-8 cytotoxicity assay
# Assay type: cell-based
compound,measurement,value
"CC(=O)N1CCN(c2ccc(OCC3COC(Cn4ccnc4)(c4ccc(Cl)cc4Cl)O3)cc2)CC1 (stereo not shown) [KCZ, ketoconazole]",cytotoxicity,minimal cytotoxicity

# — paper PMC12101129, “An optimized CYP3A4-activatable fluorogenic sensor for in situ functional imaging and multi-dimensional inhibitor assessment” (Chemical Science, 2025)
